Results published in US11987572B2, “Therapeutic compounds and methods of use thereof” (REGENTS OF THE UNIVERSITY OF MINNESOTA, priority 2019, dated 2024).

Biological target: T1, His9-BRD4 D1 (Homo sapiens, UniProt O60885)
T1 construct: 7.5-60 nM for His9-tagged BRD4 D1; made in house; host or cells: E. coli BL21(DE3) with pRARE
Test: AlphaScreen assay with His9-BRD4 D1
Type: binding

With `Cc1cc(C)cc(Oc2nccc(-c3c(-c4ccc(I)cc4)ncn3C3CCNCC3)n2)c1` the IC50 was 170 nM.
